The text below walks through data of patent publication US20110091544A1 (priority 2009, published 2011).

This is a selection: effects in other tests are not listed, and their absence says nothing.

The conditions of data set [1]: IV; cited from earlier work.
Data set [2] in a line: Phase 1 clinical study of sublingual sufentanil, slow-eroding formulation (Examples 1A, 1B), plasma pharmacokinetics, naltrexone-blocked.
A short description of data set [3]: Phase 1 clinical study of sublingual sufentanil, faster-eroding formulation (Examples 1C, 1D), plasma pharmacokinetics, naltrexone-blocked.
The next data set concerns dental outpatients. The following applies: both oral and sublingual; cited from earlier work.
For data set [4] the following is noted: swallowed drug; cited from earlier work.

On to `CCC(=O)N(c1ccccc1)C1(COC)CCN(CCc2cccs2)CC1`, for which the “administered dose excreted in 24 hours” value in data set [1] is on record as 80%. Further, the plasma elimination half-life in data set [1] was 148 min. Moreover, the Tmax (as a rule, the time from dosing to the highest level) in data set [2] (2.5 mcg single sublingual, slow-eroding formulation) turned out to be 43.8 ± 7.8 min; in data set [2] (4 × 5 mcg sublingual at 10-minute intervals, slow-eroding formulation) it was 69.6 ± 13.8 min; in data set [2] (5 mcg IV, 10-minute infusion), 9.6 ± 1.8 min; in data set [2] (5 mcg single sublingual, slow-eroding formulation) it was 46.2 ± 17.4 min; in data set [2] (10 mcg single sublingual, slow-eroding formulation), 40.8 ± 13.2 min; in data set [3] (4 × 10 mcg sublingual at 20-minute intervals, faster-eroding formulation) it was 84.6 ± 15 min. Further, the Tmax in data set [3] (5 mcg IV, 10-minute infusion) was 10.2 ± 0 min; in data set [3] (10 mcg single sublingual, faster-eroding formulation) it was 50.4 ± 21 min; in data set [3] (80 mcg single sublingual, faster-eroding formulation), 53.4 ± 21 min; with dental outpatients, “approximately 90 minutes”.
Take `CCC(=O)N(c1ccccc1)C1CCN(CCc2ccccc2)CC1`: in data set [4], the “bioavailability from the GI route” value is 30%.
